The numbers were not newly measured in patent US10376598B2, “Targeted therapeutics” (Madrigal Pharmaceuticals, Inc., priority 2013, dated 2019), which cites them from elsewhere.

For this series the following is noted: in vivo; read-out: unbound plasma IC50 for saturation of BBB efflux; cited from earlier work.

For `CCN1CCN(Cc2ccc(Nc3ncc(F)c(-c4cc(F)c5nc(C)n(C(C)C)c5c4)n3)nc2)CC1.CS(=O)(=O)O` [LY2835219, 2-Pyrimidinamine, N-[5-[(4-ethyl-1-piperazinyl)methyl]-2-pyridinyl]-5-fluoro-4-[4-fluoro-2-methyl-1-(1-methylethyl)-1H-benzimidazol-6-yl]-, methanesulfonate (1:1)], the IC50 is ~95 nM.
